The values that follow come from PubChem BioAssay AID1117263 (The Scripps Research Institute Molecular Screening Center, 2014).

Amino acid sequences for entries named in this document (tags omitted).
UniProt Q9HAT2, whole entry: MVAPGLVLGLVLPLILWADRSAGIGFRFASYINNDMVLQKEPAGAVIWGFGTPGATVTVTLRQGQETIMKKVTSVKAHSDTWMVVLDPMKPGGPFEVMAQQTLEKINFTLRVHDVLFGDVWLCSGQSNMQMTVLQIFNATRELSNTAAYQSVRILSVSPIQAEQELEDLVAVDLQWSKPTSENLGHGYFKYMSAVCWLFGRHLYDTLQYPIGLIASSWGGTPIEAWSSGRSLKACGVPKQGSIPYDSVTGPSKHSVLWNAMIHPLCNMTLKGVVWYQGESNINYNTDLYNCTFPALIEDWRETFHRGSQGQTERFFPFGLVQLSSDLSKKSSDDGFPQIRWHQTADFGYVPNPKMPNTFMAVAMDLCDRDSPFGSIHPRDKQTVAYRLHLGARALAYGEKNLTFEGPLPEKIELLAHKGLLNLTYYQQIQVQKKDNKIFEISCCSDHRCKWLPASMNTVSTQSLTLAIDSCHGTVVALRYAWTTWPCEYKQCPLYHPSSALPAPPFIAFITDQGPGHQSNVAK

The entries are a selection whose mix differs from that of the whole data set. Some results for these compounds are left out of this collection, so the calls shown say nothing about other tests. The source made the active and inactive calls.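 The calls were made as follows: active = mean inhibition of the replicates above the hit cutoff set in the primary screen (cut at about 17% in these data); inactive = the rest.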

The assay has as its target Sialate O-acetylesterase (Homo sapiens) (UniProt Q9HAT2). The assay can be described thus: human SIAE inhibitors, retest, confirmation, biochemical, fluorescence polarization, FP-Rh probe, triplicate (AID 1117263).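 Also: 0% = SIAE with DMSO and probe and 100% = probe without SIAE; inhibitors lower polarization as more probe stays unbound to SIAE.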 As to conditions: SIAE FP-Rh activity-based probe, at 9.66 µM, stronger effect = higher value. (Polarisation of emitted light reports the rotation of a fluorescent probe.)
Broadly, the inhibition is the relative decrease from the control value, in per cent. As for `CC(C)N1C(=O)CC2(CCN(CCOC(=O)C(O)(c3ccccc3)c3ccccc3)CC2)C1=O`, the inhibition is inactive: -0.19%.
